Tests used:
B16 melanoma = assay: Transplanted B16 melanoma in mice, tumor inhibition; type: in vivo, C57 mice; conditions: Table 13: Carboplatin 4 mg/kg i.p, Algal proteoglycan 60 mg/kg p.o, alone or combined, once a day for seven days
Method: Female C57 mice (18-22 g) and well-grown B16 melanoma on 7-11 days were used. The tumor tissue was made into cell suspension. […] Algal proteoglycan extract was administered orally, and carboplatin, doxorubicin or CTX were administered intraperitoneally, once a day. […] The blank control group was given normal saline (NS). […] The tumors were excised and weighed. The average tumor weight was calculated for each group.
(§1) A=average tumor weight (g) of blank control group,
B =average tumor weight (g) of therapeutic group

S-180 sarcoma = assay: Transplanted S-180 sarcoma in mice, tumor inhibition; conditions: Table 16: Carboplatin 4 mg/kg i.p, Algal proteoglycan 20 mg/kg p.o, alone or combined, once a day for seven days
Method: Tumors, including B-16 melanoma and S-180 sarcoma, were provided by Shanghai Institute of Materia Medica of the Chinese Academy of Sciences.
The tumor tissue was made into cell suspension. The mice were inoculated subcutaneously in the right axilla with the cell suspension, about 4.5-5×10^6 cells/mouse. After 24 hours, the mice were randomly divided into different groups and housed in separate cages (n=6). […] The administration began on the second day and lasted for seven days, with different doses. The blank control group was given normal saline (NS). The animals were sacrificed and weighed (g body weight) 24 hours after drug withdrawal. The tumors were excised and weighed. The average tumor weight was calculated for each group. According to the following formula, the tumor inhibition rate was calculated and T test was conducted.
According to the formula below, the tumor inhibition rate was calculated and T test was conducted.
as §1
B=average tumor weight (g) of therapeutic group

N.N.O=C([O-])C1(C(=O)[O-])CCC1.[Pt+2] [Carboplatin]
Body Weight (g) in the End (B16 melanoma): 23.2 g | Body Weight (g) in the Beginning (S-180 sarcoma): 18.6 g

From patent US11464826B2, “Composition comprising an algal proteoglycan extract and use thereof” (priority 2016, dated 2022)
